Measurements as given in US20100010024A1, “USE OF1,4-DIARYL-DIHYDROPYRIMIDINE-2-ON DERIVATIVES FOR TREATING PULMONARY ARTERIAL HYPERTENSION” (Bayer Healthcare AG, priority 2006, published 2010).
pIC50: −log10 of the molar value.

Molecular target: T1, human neutrophil elastase (HNE) (Homo sapiens, UniProt P08246)
T1 construct: purchased Serva, Heidelberg
T1 sequence (P08246 30-267): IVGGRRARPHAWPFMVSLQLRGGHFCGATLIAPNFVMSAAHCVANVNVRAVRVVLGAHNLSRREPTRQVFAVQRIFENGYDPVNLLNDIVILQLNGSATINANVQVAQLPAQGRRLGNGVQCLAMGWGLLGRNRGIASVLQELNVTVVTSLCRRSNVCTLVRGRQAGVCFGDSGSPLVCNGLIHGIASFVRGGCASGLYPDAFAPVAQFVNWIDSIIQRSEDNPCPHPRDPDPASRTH
Assay: In vitro HNE inhibition assay
Assay type: biochemical
Method: B-1. In vitro HNE Inhibition Assay
The potency of the compounds of the invention is ascertained in an in vitro inhibition assay. The HNE-mediated amidolytic cleavage of a suitable peptide substrate leads in this connection to an increase in the fluorescent light. The signal intensity of the fluorescent light is directly proportional to the enzyme activity.
Enzyme (80 pM HNE; from Serva, Heidelberg) and substrate (20 μM MeOSuc-Ala-Ala-Pro-Val-AMC; from Bachem, Weil am Rhein) are incubated in an assay volume of in total 50 μl of assay buffer (0.1 M HEPES pH 7.4, 0.5 M NaCl, 0.1% w/v BSA, 1% v/v DMSO) in a 384-well microtiter plate in the presence and absence of the test substance at 37° C. for 2 hours. […] The IC50 values are determined by plotting the intensity of the fluorescent light against the active substance concentration.

## CC(=O)C1=C(C)N(c2cccc(C(F)(F)F)c2)C(=O)N[C@@H]1c1ccc(C#N)nc1 [Example 9, 5-{(4R)-5-Acetyl-6-methyl-2-oxo-1-[3-(trifluoromethyl)phenyl]-1,2,3,4-tetrahydropyrimidin-4-yl}-pyridine-2-carbonitrile]
  pIC50: 7.70
